Source: patent US10407440B2, “Therapeutic agent for motor disorders” (KYOWA HAKKO KIRIN CO., LTD., priority 2009, dated 2019)

The chains behind the UniProt entries cited, without tags or fusion partners.
UniProt P30542, whole entry: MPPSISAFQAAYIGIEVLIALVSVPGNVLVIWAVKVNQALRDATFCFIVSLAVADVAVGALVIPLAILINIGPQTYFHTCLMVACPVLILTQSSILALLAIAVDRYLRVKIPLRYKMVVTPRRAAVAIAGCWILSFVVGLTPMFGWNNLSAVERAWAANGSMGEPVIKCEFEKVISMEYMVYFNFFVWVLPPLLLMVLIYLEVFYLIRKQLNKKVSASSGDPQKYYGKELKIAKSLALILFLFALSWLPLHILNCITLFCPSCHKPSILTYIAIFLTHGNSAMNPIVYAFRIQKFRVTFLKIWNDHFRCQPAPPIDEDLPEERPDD

Assays:
[1] = target: T1, human adenosine A1 receptor (Homo sapiens, UniProt P30542); experiment: Adenosine A1 receptor binding test (3H-DPCPX binding); details: read-out: Inhibitory rate for human adenosine A1 receptor binding (3H-DPCPX binding)
T1 construct: host or cells: CHO cells (membranes)
Text: Specifically, for example, human A1 receptor-expressing CHO cell membranes are used, and, as the labeled compound, for example, tritium-labeled DPCPX (1,3-dipropyl-8-cyclopentylxanthine) is used. The amount of non-specific binding can be determined by measuring the ^3H-DPCPX bound radioactivity in the presence of, for example, 100 μmol/L of R(−)-PIA((−)-N^6-2-phenylisopropyl adenosine).

[2] = target: T2, human adenosine A2A receptor (Homo sapiens, UniProt P29274); experiment: Adenosine A2A receptor binding test (3H-CGS21680 binding); details: compound at 100 nmol/L; Table 1, measured by MDS Pharma Services Inc.; read-out: Inhibitory rate for human adenosine A2A receptor binding (3H-CGS21680 binding)
T2 construct: host or cells: HEK-293 cells (membranes)
Text: Specifically, for example, human recombinant receptors are expressed in HEK-293 cells.
The inhibitory rate can be calculated by the following equation.

Compound	inhibition at 0.1 µM [1]	inhibition at 0.1 µM [2]
O=C(Nc1nc(-c2ccco2)c(C(=O)c2ccccn2)s1)OC1CCOCC1 [(ID)]	28%	100%
O=C(CN1CC=CCC1)Nc1nc(-c2ccco2)c(C(=O)C2CCOCC2)s1 [Compound (IA)]	14%	92%
Cc1ncc(C(=O)Nc2nc(-c3ccco3)c(C(=O)C3CCOCC3)s2)cn1 [Compound (IB)]	4%	98%
Cc1ccc(C(=O)Nc2nc(-c3ccco3)c(C(=O)C3CCOCC3)s2)cn1 [Compound (IC)]		88%
